In patent US12478623B2 (INTRA-CELLULAR THERAPIES, INC., priority 2019, dated 2025):
Only a part of the results on these compounds is given; other tests are left out.

Legend:
[1] = tested on: healthy individuals; details: double-blind; cited from earlier work
[2] = tested on: rats; details: cited from earlier work
[3] = tested on: ketamine induced hyperactivity; details: single dose; cited from earlier work
[4] = tested on: memory deficits caused by ketamine; details: single dose, ketamine-induced deficits; cited from earlier work
[5] = tested on: freely moving rats; assay: Regional dopamine release in freely moving rats; details: SNP with risperidone

sodium nitroprusside
Psychotomimetic symptoms induced by ketamine [1]: reduced psychotomimetic symptoms induced by ketamine | PCP induced hyperactivity [2]: completely abolished phencyclidine (PCP) induced hyperactivity | Ketamine induced hyperactivity [3]: prevent ketamine induced hyperactivity up to a week after the SNP injection | Memory deficits in the novel object recognition test [4]: restored memory deficits caused by ketamine | Risperidone-induced dopamine release in the nucleus accumbens ([5]; NAc): not in the nucleus accumbens | Risperidone-induced dopamine release in the mPFC ([5]; mPFC): significantly enhances the risperidone-induced dopamine release in the mPFC
